Biological target: D(2) dopamine receptor (Homo sapiens) (UniProt P14416)

By UniProt entry, the sequences of proteins in these tests, tags left out.
UniProt P14416, whole entry: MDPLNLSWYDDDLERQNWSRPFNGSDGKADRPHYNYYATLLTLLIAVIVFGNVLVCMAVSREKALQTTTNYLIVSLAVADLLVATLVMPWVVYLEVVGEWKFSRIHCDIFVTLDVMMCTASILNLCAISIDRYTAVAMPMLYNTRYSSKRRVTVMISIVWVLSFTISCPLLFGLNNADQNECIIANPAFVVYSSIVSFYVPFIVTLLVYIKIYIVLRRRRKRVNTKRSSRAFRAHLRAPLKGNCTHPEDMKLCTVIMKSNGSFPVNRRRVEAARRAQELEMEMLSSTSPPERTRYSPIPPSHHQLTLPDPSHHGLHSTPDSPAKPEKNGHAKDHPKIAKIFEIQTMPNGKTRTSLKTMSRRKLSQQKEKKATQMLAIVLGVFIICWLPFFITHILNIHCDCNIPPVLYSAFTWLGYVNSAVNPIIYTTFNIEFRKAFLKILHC

Compound `CN(CCCC(=O)c1ccc(F)cc1)CCCC(O)c1ccc(Cl)cc1` (configuration not stated) has a pKi of 7.58.
`O=C(CCCN1CCC(c2ccc(Cl)cc2)CC1)c1ccc(F)cc1` was tested, and the pKi was 7.81.
